Literature values in patent US11896564B2, “Medical treatment for pathologic inflammation” (PHARMACYL AB, priority 2018, dated 2024).

Test system: ulcerative colitis patients
Conditions: 58% of placebo patients; cited from earlier work

Nc1ccc(O)c(C(=O)O)c1 [Example 5-ASA, mesalazine]
patients who relapsed (maintenance therapy): Forty-one
